High-throughput results as filed in PubChem BioAssay.
This excerpt belongs to a sample that is enriched for hits.
HCMV UL50-53 inh: inhibitors of HCMV UL50-UL53 nuclear egress complex interaction. inhibition, % (concentration not given with the values). HTRF UL50-UL53 interaction, normalized percent inhibition. hit rate 0.15% among 190,000. AID 1918969; in the data active = inhibition above about 27%, passing the limit was not always enough
GIV Gai3 FP: inhibitors of GIV peptide binding to Galpha-i3, primary screen, biochemical, fluorescence polarization, FITC-GIV GBA peptide, rat Galphai3 | Guanine nucleotide-binding protein G(i) subunit alpha-3 (Rattus norvegicus), P08753 | 90 min; active compounds read low; scaled: aluminum fluoride 0%, vehicle 100% | 210,000 tested, 0.42% active | AID 1224905, 2016 | percent of control (FP), % (no concentration beside the values);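 active means replicate mean at 85% of control or lower, very high polarization wells dropped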;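 further: wells of about 15 µL received 100 nL stock; the first replicate is given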
Numbers without * were called inactive; · = no result given.

The chains behind the UniProt entries cited, without tags or fusion partners.
Guanine nucleotide-binding protein G(i) subunit alpha-3 (Rattus norvegicus), P08753, UniProt P08753, whole entry, looked up: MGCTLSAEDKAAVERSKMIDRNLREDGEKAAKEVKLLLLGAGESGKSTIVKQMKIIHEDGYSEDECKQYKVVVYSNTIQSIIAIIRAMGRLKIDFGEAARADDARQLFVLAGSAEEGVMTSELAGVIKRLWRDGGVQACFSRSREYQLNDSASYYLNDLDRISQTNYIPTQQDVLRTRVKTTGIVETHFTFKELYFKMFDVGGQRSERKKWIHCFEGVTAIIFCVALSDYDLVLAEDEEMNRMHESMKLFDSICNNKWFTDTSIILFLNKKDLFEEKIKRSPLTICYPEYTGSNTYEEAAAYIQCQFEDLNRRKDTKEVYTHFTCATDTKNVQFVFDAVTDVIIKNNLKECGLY

Sequence of screens – HCMV UL50-53 inh | GIV Gai3 FP
1. CC(C)N1CCc2c(sc(NC(=O)c3ccc(F)cc3)c2-c2nc3ccccc3s2)C1
    · | -3.2*
2. CC(=O)N1CCc2c(sc(NC(=O)c3ccc(Br)s3)c2-c2nc3ccccc3s2)C1
    -21.7 | 107.6
3. COC(=O)c1c(NC(=O)c2ccc(Br)cc2)sc2c1CCN(C(C)C)C2
    · | -26.3*
4. CN1CCc2c(sc(NC(=O)CSc3ccccc3)c2-c2nc3ccccc3s2)C1
    · | 188.4
5. CC(=O)N1CCCc2cc(S(=O)(=O)N(Cc3ccccc3)C(C)C)ccc21
    · | 105.3
6. Cc1ccccc1CNC(=O)C1(C)CCCN(C(=O)NCC(C)C)C1 (centres undefined)
    · | 101.4
7. Cc1nc(NC(=O)CSc2ccc3c(c2)OCCO3)c(Cl)cc1Cl
    -6.5 | ·
8. COC(C)OC(=O)Cn1c(=O)sc2cccc(Cl)c21 (centres undefined)
    2.4 | ·
9. CC(=O)Nc1sc2c(c1-c1nc3ccccc3s1)CCN(Cc1ccccc1)C2
    · | -3.2*
10. CCN1CCc2c(sc(NC(=O)CCc3ccccc3)c2-c2nc3ccccc3s2)C1
    · | 121.3
11. CCCn1c(/N=C/c2ccccc2Cl)nc2ccccc21
    12.9 | ·
12. CCn1c(/N=C/c2ccccc2Cl)nc2ccccc21
    72.1* | 103.9
13. CCOC(=O)c1[nH]c(C)c(CN(CC2CCCO2)C(=O)c2cccnc2)c1C (centres undefined)
    · | 100.5
14. CCOc1cc(/C=C2/C(=O)N(c3ccccc3)N=C2C)ccc1OS(=O)(=O)c1ccccc1[N+](=O)[O-]
    -0.1 | 106.3
15. COc1cc(C=C2C(=O)N(C)C(=O)N(C)C2=O)ccc1OS(=O)(=O)c1ccccc1[N+](=O)[O-]
    43.0* | 95.4
16. N#CC1=C(N)SC(N)=C(C#N)C1CCC1CCCCC1
    -7.4 | -94.8*
17. Nc1nnc(CCC2CCCCC2)s1
    -12.3 | 101.0
18. Cc1ccc2oc(=O)c3cc(C(=O)NCCCN4CCN(C)CC4)sc3c2c1
    -67.6 | 119.4
19. CCSc1nc2n(n1)C(c1ccc(Cl)cc1Cl)C(C(=O)Nc1ccccc1C)=C(C)N2 (centres undefined)
    · | 99.0
20. COc1cccc(NC(=O)Cn2c(=O)nc(-c3ccccc3)c3ccccc32)c1
    -23.1 | 106.8
21. O=C(O)c1ccccc1-c1ccccc1C(=O)O
    7.7 | 110.4
22. O=C(O)c1ccccc1C1=Nc2ccc(O)cc2Oc2cc(O)ccc21
    -27.3 | -91.0*
23. CC1=C(C(N)=O)C(c2ccc(C(=O)O)cc2)n2ncnc2N1 (centres undefined)
    -19.0 | 103.3
24. COC(=O)c1ccc2c(c1)NC(=O)C1CCCN21 (centres undefined)
    -4.9 | ·
25. O=C(O)c1ccc2c(c1)NC(=O)C1CCCN21 (centres undefined)
    78.7* | ·
26. COc1ccc(N=Cc2sc3ccccc3c2O)cc1
    · | -32.1*
27. O=[N+]([O-])c1cccc(N=Cc2sc3ccccc3c2O)c1
    -24.4 | 106.8
28. NC(=O)C1CCN(C(=O)c2ccc3c(c2)nc(SCc2cccc([N+](=O)[O-])c2)n2c4ccccc4nc32)CC1
    · | 106.4
29. CN(CC(=O)N1CCOCC1)C(=O)c1ccc(N2CCNCC2)c(NS(C)(=O)=O)c1
    -7.6 | 100.5
30. CCOc1cc(C=C2C(=O)NC(=S)NC2=O)ccc1OCc1ccccc1Cl
    -11.0 | 104.6

One compound at a time, as listed above. Order of screens: HCMV UL50-53 inh	GIV Gai3 FP
O=C(O)c1ccccc1-c1ccccc1C(=O)O is listed as 7.7	110.4
CCN1CCc2c(sc(NC(=O)CCc3ccccc3)c2-c2nc3ccccc3s2)C1 is listed as ·	121.3
Nc1nnc(CCC2CCCCC2)s1 is listed as -12.3	101.0
CCOc1cc(C=C2C(=O)NC(=S)NC2=O)ccc1OCc1ccccc1Cl is listed as -11.0	104.6
CC(C)N1CCc2c(sc(NC(=O)c3ccc(F)cc3)c2-c2nc3ccccc3s2)C1 is listed as ·	-3.2*

(more compounds)
Sequence of screens – HCMV UL50-53 inh | GIV Gai3 FP
31. CN1C(=O)C(=Cc2cc(Br)ccc2OCc2ccccc2)C(=O)N(C)C1=O
    -3.4 | 105.4
32. CCOC(=O)COc1ccc(Br)cc1C=C1C(=O)NC(=O)NC1=O
    57.4* | 97.0
33. O=C1NC(=S)NC(=O)C1=Cc1ccc(OCc2ccccc2)c(Br)c1
    66.5* | 99.3
34. O=C1NC(=O)C(=Cc2cc(Br)ccc2OCc2ccccc2)C(=O)N1
    89.3* | 105.8
35. Cc1ccc(OCCOc2ccc(Br)cc2C=C2C(=O)NC(=S)NC2=O)cc1
    -25.0 | 94.8
36. CSc1ccc(S(=O)(=O)Nc2ccc(S(=O)(=O)N3CCCCCC3)cc2)cc1
    -8.5 | 106.2
37. CN(C)Cc1ccc(CSCCNC(=O)Nc2ccccc2)o1
    6.9 | 115.9
38. O=C(c1ccco1)N1CCC(Nc2ncnc3c2CCC3)CC1
    · | 104.4
39. Cc1csc(-c2cc(S(=O)(=O)NCc3ccccc3Cl)c(C)s2)n1
    · | 109.4
40. Cc1cc(C)c2nc3sc(C(=O)N4CCOCC4)c(N)c3cc2c1
    -105.5 | -49.5*
41. COc1ccc2nc3sc(C(=O)N4CCCC4)c(N)c3cc2c1
    -55.4 | -62.1*
42. Cc1ccc2nc3sc(C(=O)O)c(N)c3cc2c1
    -108.5 | 105.1
43. Nc1c(C(=O)N2CCOCC2)sc2nc3c(cc12)CCCC3
    -72.9 | 105.0
44. O=C(O)CN(CC(=O)O)c1ccc2cccc(O)c2n1
    -7.0 | 103.4
45. Cc1ccc(O)c(NC(=O)C2=CC(c3cccs3)=NS(=O)(=O)N2C)c1
    -46.1 | 105.7
46. N#CC1(NC(Cc2ccccc2)c2ccccc2)CCCCCC1 (centres undefined)
    10.4 | 104.6
47. Cc1ccc(COC2CN(C(=O)C3CCC3)C2)cc1
    -7.9 | 99.8
48. CCOC(=O)N1CCC(Nc2nc(OC)nc(OC)n2)CC1
    · | 95.9
49. OCCNc1nc2ccccc2n1Cc1ccccc1Cl
    -11.1 | ·
50. Cc1cc(C)cc(NC(=O)c2oc3c(c2C)-c2[nH]ncc2CC3)c1
    · | 110.0
51. Cc1c(C(=O)O)oc2c1-c1[nH]ncc1CC2
    61.0* | 98.1
52. Cc1ccc(S(=O)(=O)c2nc(-c3ccccc3)oc2NCCN2CCOCC2)cc1
    -2.9 | 99.7
53. CN(C)CCNc1cc(N2CCOCC2)c2noc3c2c1C(=O)c1ccccc1-3
    -73.0 | -68.2*
54. CCCCNc1cc(N2CCC(C)CC2)c2noc3c2c1C(=O)c1ccccc1-3
    -59.6 | 2.5*
55. CCNc1cc(N2CCN(c3ccccc3)CC2)c2noc3c2c1C(=O)c1ccccc1-3
    -2.4 | 114.3
56. CCNc1cc(N2CCC(C)CC2)c2noc3c2c1C(=O)c1ccccc1-3
    -71.9 | 139.4
57. CN(C)CCNc1cc(N2CCN(C(=O)c3ccco3)CC2)c2noc3c2c1C(=O)c1ccccc1-3
    -132.1 | -31.4*
58. CCNc1cc(N2CCCC2)c2noc3c2c1C(=O)c1ccccc1-3
    · | 201.1
59. O=C(/C=C1\SC(=O)NC1=O)Nc1ccc(F)cc1
    -38.9 | 100.6
60. COc1ccccc1NC(=O)Cc1noc(COC(=O)c2sc3ccccc3c2Cl)n1
    -21.3 | ·
61. Brc1c(NC2=NCCN2)ccc2nccnc12
    -55.3 | 99.3
62. O=C(Nc1cccc(CO)c1)C(F)(F)F
    5.0 | ·
63. Cc1cc(C)c2c(n1)sc1c(=O)n(-c3ccccc3C(F)(F)F)nnc12
    0.0 | 109.4
64. Nc1ccc(C(=O)O)c2c(C(=O)O)cccc12
    -46.4 | 71.9*
65. O=C(O)c1cccc2cccc(C(=O)O)c12
    -30.5 | 98.4
66. CCN(CC)c1ccc(/C=C2\N=C(SC)SC2=O)cc1
    -30.4 | -78.3*
67. CSC1=N/C(=C\c2ccccc2)C(=O)S1
    -18.7 | 107.4
68. Cc1ccccc1Nc1cc2ccccc2c(=O)[nH]1
    57.9* | 87.6
69. Cc1nc2cc3ccccc3cc2c(=O)[nH]1
    -67.9 | 107.8
70. Cc1c(C(=O)COC(=O)c2ccccc2Cl)sc2ccccc12
    -9.7 | 102.4
71. Oc1ccc(C=Nc2ccc(Nc3ccccc3)cc2)c(O)c1
    2.5 | 6.8*
72. Oc1ccc(C=Nc2cccc(C(F)(F)F)c2)c(O)c1
    7.9 | 110.1
73. Cc1cccc(-c2nc3c(cnn3-c3ccccc3)c(=O)n2-c2ccc(Br)cc2)c1
    56.5* | 110.4
74. Cc1ccc(-n2c(-c3cccc(C)c3)nc3c(cnn3-c3ccccc3)c2=O)cc1
    6.9 | 109.0
75. CC1C(=O)CCN(Cc2ccccc2)C1C (centres undefined)
    -21.4 | 95.8
76. O=c1c2cccc3cccc(c32)c2nc3ccccc3n12
    · | 112.2
77. C=CCNc1ccc2c3c1cccc3c(=O)n1c3ccccc3nc21
    · | -51.6*

Three compounds out of the list above, sorted by their value in GIV Gai3 FP, low to high:
# | Molecule | GIV Gai3 FP
77 | C=CCNc1ccc2c3c1cccc3c(=O)n1c3ccccc3nc21 | -51.6*
69 | Cc1nc2cc3ccccc3cc2c(=O)[nH]1 | 107.8
72 | Oc1ccc(C=Nc2cccc(C(F)(F)F)c2)c(O)c1 | 110.1
